In the test the test system is MM1.S. Nature of the test: Cytotoxicity against human MM1S cells assessed as reduction in cell viability after 72 hrs by MTT assay. The format is functional, cell-based. A general note: Tetrazolium assays rely on reduction of a dye to a coloured formazan, in cell work by metabolically active cells.

pIC50: −log10 of the molar value.

On to `CCn1c2c(c(=O)[nH]c1=O)C(c1ccc(C)cc1)C1=C(CN(CCc3ccc(O)cc3)C1=O)N2` (stereo unspecified), for which the pIC50 was 6.34.

By pIC50 is commonly meant −log10 of the IC50, conventionally taken in molar units.
